The test addresses Protein farnesyltransferase (Homo sapiens, UniProt P49354+P49356). In words: Inhibitory activity against Hras Farnesyltransferase (FPT). It is filed as protein-complex assay.

Results on 6 molecules are retold here after ChEMBL document CHEMBL1132302, “Identification of pharmacokinetically stable 3, 10-dibromo-8-chlorobenzocycloheptapyridine farnesyl protein transferase inhibitors with potent enzyme and cellular activities” (J Med Chem, 1999).

`NS(=O)(=O)N1CCC(CC(=O)N2CCC([C@H]3c4ncc(Br)cc4CCc4cc(Cl)cc(Br)c43)CC2)CC1` yielded a half-maximal inhibitory concentration (IC50) of 3.1 nM. That is a single-digit nanomolar value. The result for `CS(=O)(=O)N1CCC(CC(=O)N2CCC([C@H]3c4ncc(Br)cc4CCc4cc(Cl)cc(Br)c43)CC2)CC1` reads 2 nM. The same measure for `CCOC(=O)CNC(=O)N1CCC(CC(=O)N2CCC([C@H]3c4ncc(Br)cc4CCc4cc(Cl)cc(Br)c43)CC2)CC1`: 2 nM. `NCC(=O)N1CCC(CC(=O)N2CCC([C@H]3c4ncc(Br)cc4CCc4cc(Cl)cc(Br)c43)CC2)CC1` yielded an IC50 of 5.3 nM. Compared with the last molecule, the IC50 is about 2.6-fold higher. The same measure for `CNC(=O)N1CCC(CC(=O)N2CCC([C@H]3c4ncc(Br)cc4CCc4cc(Cl)cc(Br)c43)CC2)CC1`: 1.9 nM; for `O=C(O)CNC(=O)N1CCC(CC(=O)N2CCC([C@H]3c4ncc(Br)cc4CCc4cc(Cl)cc(Br)c43)CC2)CC1`: 0.8 nM.
